Values of other authors as cited in patent US4755385A, “Oral pharmaceutical preparations containing 9-deoxo-11-deoxy-9,11-[imino[2-(2-methoxyethoxy)-ethylidene]-oxy]-(9S)-e rythromycin” (priority 1985, dated 1988).

Conditions: compared with other antibiotics of same structural type, e.g. erythromycin; cited from earlier work

CC[C@H]1OC(=O)[C@H](C)[C@@H](O[C@H]2C[C@@](C)(OC)[C@@H](O)[C@H](C)O2)[C@H](C)[C@@H](O[C@@H]2O[C@H](C)C[C@H](N(C)C)[C@H]2O)[C@](C)(O)C[C@@H](C)[C@@H]2NC(COCCOC)O[C@H]([C@H]2C)[C@]1(C)O (stereo partly drawn) [AS-E 136, 9-deoxo-11-deoxy-9,11-[imino[2-(2-methoxyethoxy)-ethylidene]oxy]-(9S)-erythromycin]
tissue levels: exceptionally high and long-lasting tissue levels
